The target in experiment [1] is T1, PTH/PTHrP receptor (Homo sapiens, UniProt Q03431).
T1 construct: expressed in transfected cells; host or cells: COS-7 cells, transient transfection, vector pcDNA-1
T1 sequence (Q03431 27-593): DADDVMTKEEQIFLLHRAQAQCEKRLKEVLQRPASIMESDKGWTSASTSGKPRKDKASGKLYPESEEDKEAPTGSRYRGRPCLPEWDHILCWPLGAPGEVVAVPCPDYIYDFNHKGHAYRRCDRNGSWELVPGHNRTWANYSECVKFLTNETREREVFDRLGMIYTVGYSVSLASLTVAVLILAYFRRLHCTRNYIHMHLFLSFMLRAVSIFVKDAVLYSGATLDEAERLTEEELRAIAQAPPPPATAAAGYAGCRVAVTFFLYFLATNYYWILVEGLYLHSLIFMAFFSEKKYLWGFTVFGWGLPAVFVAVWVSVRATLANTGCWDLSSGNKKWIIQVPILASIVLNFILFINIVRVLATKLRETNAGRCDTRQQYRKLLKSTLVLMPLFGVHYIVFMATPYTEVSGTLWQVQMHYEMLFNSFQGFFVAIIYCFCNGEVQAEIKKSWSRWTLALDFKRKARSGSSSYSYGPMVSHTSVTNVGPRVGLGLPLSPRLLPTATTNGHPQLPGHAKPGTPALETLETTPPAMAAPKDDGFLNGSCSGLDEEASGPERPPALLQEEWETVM
The experiment is described as follows: Competition radioligand binding, COS-7 cells transfected with human PTH/PTHrP receptor. Particulars: read-out: Binding IC50, PTH/PTHrP receptor, radioligand 125I-[Nle8,21,Y34]rPTH-(1-34)NH2, 2 hours at room temperature, mean ± s.e.m. Here is the method:
(§1) The cDNAs encoding the human PTH/PTHrP receptor (Schipani, E. et al., Endocrinology 132:2157-2165 (1993)) and the human PTH-2 receptor (Usdin, T. et al., J. Biol. Chem. 270:15455-15458 (1995)) were carried on the expression vectors pcDNA-1 and pcDNAI/Amp (InVitrogen, San Diego, Calif.), respectively. COS-7 cells were cultured and transfected as described previously (Lee, C. et al., Mol. Endocrinol. 9:1269-1278 (1995)). Cells were transfected in 24-well plates using plasmid DNA (200 ng/well) purified by cesium chloride/ethidium bromide gradient centrifugation. Ligand binding and cAMP accumulation assays were performed three days after transfection, by which time the cell density reached 500,000±100,000 cells/well.
(§2) Binding reactions were performed as described previously. Id. Each well (final volume: […]) contained 26 fmole of ^125I-[Nle^8,21,Tyr^34]rPTH(1-34)NH2 (100,000 CPM) and various amounts (0.4-300 pmole) of an unlabeled competitor ligand, both diluted in binding buffer (50 mM Tris-HCl, pH 7.7, 100 mM NaCl, 5 mM KCl, 2 mM CaCl, 5% heat-inactivated horse serum, 0.5% heat-inactivated fetal bovine serum). Incubations were at room temperature for 2 hours, except for experiments involving Scatchard analysis, which were performed at 4° C. for 6 hours. At the end of the binding reaction, the cells were rinsed 3 times with 0.5 ml of binding buffer, lysed with 0.5 ml of 5M NaOH, and the entire lysate was counted. Nonspecific binding of tracer (NSB), determined in wells containing 1 μM of [NleTyr^8,21,Tyr^34]rPTH-(1-34)NH2, was ˜1% of total counts added. Maximum specific binding (B0) was calculated as the total radioactivity bound to cells in the absence of unlabeled PTH ligand, minus NSB. […] For Scatchard analyses, homologous competition binding studies were performed that used ^125I-[-NleTyr^8,21,Tyr^34]rPTH-(1-34)NH2 (26 fmole/well) and varying amounts (1.2-300 pmol) of the same unlabeled ligand. Estimates of the number of receptors/cell derived from these studies assumed a single class of binding sites and a transfection efficiency of 20% (Abou-Samra, A. B. et al., Proc. Natl. Acad. Sci (USA) 89:2732-2736 (1992)).

Protein sequences, listed by entry. Tags and fused reporters are not part of them. Residues count along the entry.
UniProt P49190, 25-550: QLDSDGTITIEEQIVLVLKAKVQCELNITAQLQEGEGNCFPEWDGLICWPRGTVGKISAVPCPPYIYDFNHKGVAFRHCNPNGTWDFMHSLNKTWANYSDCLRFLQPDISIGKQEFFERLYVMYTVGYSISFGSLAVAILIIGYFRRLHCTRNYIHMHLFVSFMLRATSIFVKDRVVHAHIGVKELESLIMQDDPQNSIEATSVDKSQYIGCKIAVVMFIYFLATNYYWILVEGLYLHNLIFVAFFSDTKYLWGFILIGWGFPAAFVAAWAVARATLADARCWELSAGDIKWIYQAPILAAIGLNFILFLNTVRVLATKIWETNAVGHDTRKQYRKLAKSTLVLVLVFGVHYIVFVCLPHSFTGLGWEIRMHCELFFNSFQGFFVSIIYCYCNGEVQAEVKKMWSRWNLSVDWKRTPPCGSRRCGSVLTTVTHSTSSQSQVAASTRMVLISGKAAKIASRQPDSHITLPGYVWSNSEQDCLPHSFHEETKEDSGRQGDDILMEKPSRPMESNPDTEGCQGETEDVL

The target in experiment [2] is T2, PTH-2 receptor (Homo sapiens, UniProt P49190).
T2 construct: expressed in transfected cells; host or cells: COS-7 cells, transient transfection, vector pcDNAI/Amp
The experiment is described as follows: Competition radioligand binding, COS-7 cells transfected with human PTH-2 receptor. Particulars: read-out: Binding IC50, PTH-2 receptor, radioligand 125I-[Nle8,21,Y34]rPTH-(1-34)NH2, 2 hours at room temperature, mean ± s.e.m. The method, then:
as §1, §2

Experiment [3] has as its target T1, PTH/PTHrP receptor. The experiment can be described thus: Ligand-induced intracellular cAMP accumulation, COS-7 cells expressing human PTH/PTHrP receptor. The experiment is classed as cell-based. Particulars: read-out: cAMP accumulation EC50, PTH/PTHrP receptor, 1h at room temperature, IBMX, mean ± s.e.m. The method, then:
as §1
(§3) Transfected COS-7 cells were rinsed with […] of binding buffer. 200 μl of IBMX buffer (DMEM containing 2 mM IBMX, 1 mg/ml bovine serum albumin, 35 mM Hepes-NaOH, pH 7.4) and […] of binding buffer or binding buffer containing various amounts of a PTH or PTHrP analog were then added. The plates were incubated for 60 minutes at room temperature. The buffer was then withdrawn and the cells lysed by placing the plates on powdered dry ice and adding 0.5 ml of 50 mM HCl. The acid lysate was diluted 1/30 in dH2O, and an aliquot (5-50 μl) analyzed for cAMP content by radioimmunoassay. […] For antagonist studies, the inhibitor peptide [Leu^11,D-Trp^12]hPTHrP(7-34)NH2or [Trp^23,Tyr^36]hPTHrP-(1-36)N2H was applied to COS-7 cells in 100 μl of binding buffer two minutes prior to the addition of IBMX buffer that contained a near-maximal stimulatory dose (1.5 nM) of [Tyr^34]hPTH-(1-34)NH2 agonist peptide. The cells were then incubated for 30 minutes at room temperature, and the resulting intracellular cAMP was measured by RIA. Data were analyzed using the AssayZap software (Elsevier Science Publishers BV, Cambridge, United Kingdom).

In experiment [4] the target is T2, PTH-2 receptor. The experiment can be described thus: Ligand-induced intracellular cAMP accumulation, COS-7 cells expressing human PTH-2 receptor. It counts as cell-based. Particulars: read-out: cAMP accumulation EC50, PTH-2 receptor, 1h at room temperature, IBMX, mean ± s.e.m. Here is the method: as §1, §3
A further experiment deals with T3, human PTH/PTHrP receptor (human, UniProt Q03431 27-593).
T3 construct: whole, on cells; Transiently expressed on COS-7 cells
T3 sequence (looked up): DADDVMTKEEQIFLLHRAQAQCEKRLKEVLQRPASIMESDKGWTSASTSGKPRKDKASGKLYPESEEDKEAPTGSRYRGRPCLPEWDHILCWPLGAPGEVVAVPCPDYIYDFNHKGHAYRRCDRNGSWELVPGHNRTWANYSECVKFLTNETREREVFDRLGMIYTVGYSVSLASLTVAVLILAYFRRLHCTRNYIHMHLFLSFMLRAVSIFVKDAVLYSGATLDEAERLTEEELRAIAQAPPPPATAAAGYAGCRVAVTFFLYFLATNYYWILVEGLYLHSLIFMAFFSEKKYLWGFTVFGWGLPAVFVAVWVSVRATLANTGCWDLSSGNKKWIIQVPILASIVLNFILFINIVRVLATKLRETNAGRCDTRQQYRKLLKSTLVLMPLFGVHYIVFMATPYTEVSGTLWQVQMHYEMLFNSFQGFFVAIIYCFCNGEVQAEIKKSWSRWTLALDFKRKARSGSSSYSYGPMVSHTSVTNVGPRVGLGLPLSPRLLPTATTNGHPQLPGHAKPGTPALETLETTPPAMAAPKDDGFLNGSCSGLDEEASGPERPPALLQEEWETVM
The experiment can be described thus: radioligand competition (tracer 125I-[Nle8,21,Tyr34]rPTH-(1-34)NH2) on transfected COS-7 cells, RT 2 h. The method, then:
(§4) Assays were performed for 2 hours at room temperature. Data are the mean (± s.e.m.) of IC$50$ values obtained from the number of experiments indicated (n).
(§5) Binding reactions were performed as described previously. Id. […] Incubations were at room temperature for 2 hours, except for experiments involving Scatchard analysis, which were performed at 4° C. for 6 hours. At the end of the binding reaction, the cells were rinsed 3 times with 0.5 ml of binding buffer, lysed with 0.5 ml of 5M NaOH, and the entire lysate was counted. […] Estimates of the number of receptors/cell derived from these studies assumed a single class of binding sites and a transfection efficiency of 20% (Abou-Samra, A. B. et al., *Proc. Natl. Acad. Sci* (*USA*) 89:2732–2736 (1992)).
In general terms: Displacement assays read how much labelled ligand stays bound in the presence of the test substance.

In another experiment the target is T4, human PTH-2 receptor (human, UniProt P49190 25-550).
T4 construct: whole, on cells; Transiently expressed on COS-7 cells
Described as above. Here is the method:
as §4, §5

As to [F23, Y34]hPTH-(1-34)NH2, the IC50 at PTH/PTHrP receptor [1] came out at 95 ± 11 nM; on PTH-2 receptor [2] it was 453 ± 53 nM. Moreover, at PTH/PTHrP receptor [3], the EC50 amounted to 0.23 ± 0.02 nM.
For [H5, Y34]hPTH-(1-34)NH2, the IC50 at PTH/PTHrP receptor [1] stood at 5100 nM; on PTH-2 receptor [2], 249 ± 18 nM. For the same molecule, the EC50 on PTH/PTHrP receptor [3] was 0.93 ± 0.37 nM; at PTH-2 receptor [4] it was greater than 1000 nM.
The like results for “[Trp^23,Tyr^36]hPTHrP-(1-36) [[W23, Y36]hPTHrP-(1-36)NH2]” were, in that order, 47 ± 8 nM, 30 ± 7 nM, 0.26 ± 0.05 nM and greater than 1000 nM.
On the same counts, the results for “[Tyr^34]hPTH-(1-34)NH2 [[Y34]hPTH-(1-34)NH2, reference compound]” are 39 nM, 16 ± 4 nM, 0.46 ± 0.18 nM and 0.6 nM.
The like results for “hpTHrP-(1-14)/[Y34]hPTH-(15-34)NH2 [Hybrid-1]” were, in that order, 7900 nM, 606 ± 96 nM, 0.23 ± 0.04 nM and greater than 1000 nM.

B1: Hybrid-2 hPTH-(1-14)/[Y34]hPTHrP-(15-34)NH2 (peptide)
peptide: SVSEIQLMHNLGKHIQDLRRRFFLHHLIAEIHTY
modifications: C-terminal tyrosine-amide
notes: Synthetic PTH/PTHrP hybrid ligand; also called PTH-(1-14)/PTHrP-(15-34)
As to B1, the IC50 with human PTH/PTHrP receptor stood at 497 nM; in the experiment with human PTH-2 receptor, 750 nM.
For SVSEIQLMHNLGKHLNSMERVEWLRKKLQDVHNY (C-terminal tyrosine-amide, also called [Y34]hPTH-(1-34)NH2) [[Tyr^34]hPTH-(1-34)NH2], the figures for the IC50 with human PTH/PTHrP receptor and with human PTH-2 receptor were 39 nM and 16 nM, respectively.
The like results for SVSEIQLMHNLGKHLNSMERVEFLRKKLQDVHNY (C-terminal tyrosine-amide, also called [Phe^23]PTH-(1-34)) [[F23, Y34]hPTH-(1-34)NH2] were, in that order, 95 nM and 453 nM.
Regarding SVSEHQLMHNLGKHLNSMERVEWLRKKLQDVHNY (C-terminal tyrosine-amide, also called [H5]PTH-(1-34)) [[H5, Y34]hPTH-(1-34)NH2], the IC50 in the experiment with human PTH/PTHrP receptor amounted to 5100 nM; with human PTH-2 receptor it was 249 nM.

B2: [Nle^8,21, Tyr^34]rat(r)PTH(1-34)NH2 (peptide)
chain: AVSEIQLMHNLGKHLASVERMQWLRKKLQDVHNY
modifications: norleucine at 8 and 21; C-terminal amide; 125I-labelled (chloramine-T) where used as tracer
As to B2, the IC50 was found to be 58 nM with human PTH/PTHrP receptor and 11 nM with human PTH-2 receptor.

The values above are taken from patent US6362163B1, “Parathyroid hormone-related peptide analogs” (The General Hospital Corporation, priority 1996, dated 2002).
